{"source": "paper PMC3158247", "about": "(Journal of medicinal chemistry, 2011)", "system": "CL57BL/6 mice", "conditions": "single intravenous bolus, […] 1a and 7.9 mg/kg 3c respectively, over 24 hours", "data": [{"molecule": "Fc1cccc(Cl)c1C1CC(c2ccc(Cl)cc2)Nc2ncnn21", "note": "(racemic) [Compound 1a, 7-(2-Chloro-6-fluorophenyl)-5-(4-chlorophenyl)-4,5,6,7-tetrahydro-[1,2,4]triazolo[1,5-a]pyrimidine]", "values": [{"measurement": "morbidity, mortality, weight loss", "result": "neither compound caused observable morbidity, mortality, or weight loss"}]}]}
